Source: patent publication US8779142B2, “Azabicyclo compound and salt thereof” (Taiho Pharmaceutical Co., Ltd., priority 2009, dated 2014)

Test system: SK-BR-3 cells
Test: Measurement of cell growth inhibition (crystal violet staining method)
Assay type: cell-based
Details: read-out: Cell growth inhibition IC50; breast cancer SK-BR-3 cells, 72 hr culture with test substance

CC(=O)N(c1cc(-n2nc(C(C)C)c3c(-c4cnc5ccccc5c4)ccnc32)ccc1C(N)=O)C1CCNCC1
IC50: 10 nM
